{
  "sequences": {"note": "Amino acid sequences for entries named in this document (tags omitted). Residues count along the entry.", "UniProt Q66PY0, 1-580 R304T": "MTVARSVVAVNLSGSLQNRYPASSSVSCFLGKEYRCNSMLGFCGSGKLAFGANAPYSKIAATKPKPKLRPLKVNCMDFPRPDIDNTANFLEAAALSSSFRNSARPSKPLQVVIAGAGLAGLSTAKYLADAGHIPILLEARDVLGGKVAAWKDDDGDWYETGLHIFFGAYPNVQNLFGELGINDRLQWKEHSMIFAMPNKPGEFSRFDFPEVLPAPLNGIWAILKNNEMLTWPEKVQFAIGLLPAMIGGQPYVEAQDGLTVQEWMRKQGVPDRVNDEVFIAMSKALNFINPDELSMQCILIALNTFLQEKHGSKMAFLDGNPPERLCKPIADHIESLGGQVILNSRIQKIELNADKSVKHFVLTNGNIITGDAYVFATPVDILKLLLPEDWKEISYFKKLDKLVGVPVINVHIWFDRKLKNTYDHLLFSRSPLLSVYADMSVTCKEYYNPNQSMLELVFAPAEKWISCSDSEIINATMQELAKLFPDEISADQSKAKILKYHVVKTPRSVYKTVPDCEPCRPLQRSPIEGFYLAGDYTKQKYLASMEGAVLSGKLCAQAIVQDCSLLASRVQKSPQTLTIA", "UniProt Q66PY0, 1-580 R304S": "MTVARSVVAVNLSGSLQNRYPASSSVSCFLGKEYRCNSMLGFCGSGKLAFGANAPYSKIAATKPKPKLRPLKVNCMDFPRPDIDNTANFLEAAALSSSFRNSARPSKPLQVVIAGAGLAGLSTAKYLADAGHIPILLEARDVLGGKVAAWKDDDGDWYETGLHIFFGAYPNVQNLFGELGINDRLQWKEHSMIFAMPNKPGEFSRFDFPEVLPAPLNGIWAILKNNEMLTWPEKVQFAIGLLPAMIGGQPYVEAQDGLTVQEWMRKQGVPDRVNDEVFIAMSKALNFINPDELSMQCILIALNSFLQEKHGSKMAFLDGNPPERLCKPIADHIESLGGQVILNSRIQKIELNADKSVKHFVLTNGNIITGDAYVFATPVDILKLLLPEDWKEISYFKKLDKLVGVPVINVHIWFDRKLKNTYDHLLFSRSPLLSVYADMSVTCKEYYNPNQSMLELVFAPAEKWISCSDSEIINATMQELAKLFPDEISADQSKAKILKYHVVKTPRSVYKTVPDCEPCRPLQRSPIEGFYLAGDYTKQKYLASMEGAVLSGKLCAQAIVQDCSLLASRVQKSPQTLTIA", "UniProt Q66PY0, 1-580 R304C": "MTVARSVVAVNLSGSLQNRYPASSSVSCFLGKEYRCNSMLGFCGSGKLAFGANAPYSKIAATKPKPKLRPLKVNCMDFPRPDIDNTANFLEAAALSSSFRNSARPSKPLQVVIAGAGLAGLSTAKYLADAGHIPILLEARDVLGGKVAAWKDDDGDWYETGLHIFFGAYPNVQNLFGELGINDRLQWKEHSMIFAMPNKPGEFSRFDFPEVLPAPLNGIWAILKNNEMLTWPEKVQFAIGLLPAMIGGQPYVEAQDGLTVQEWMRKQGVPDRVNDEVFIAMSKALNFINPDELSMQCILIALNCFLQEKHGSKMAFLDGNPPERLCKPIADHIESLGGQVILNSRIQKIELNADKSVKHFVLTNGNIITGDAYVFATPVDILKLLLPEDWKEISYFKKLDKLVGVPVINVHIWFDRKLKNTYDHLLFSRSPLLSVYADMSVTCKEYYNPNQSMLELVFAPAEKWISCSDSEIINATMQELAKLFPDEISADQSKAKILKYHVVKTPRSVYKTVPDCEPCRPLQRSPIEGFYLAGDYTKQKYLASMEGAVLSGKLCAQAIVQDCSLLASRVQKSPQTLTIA", "UniProt Q66PY0, 1-580 R304H": "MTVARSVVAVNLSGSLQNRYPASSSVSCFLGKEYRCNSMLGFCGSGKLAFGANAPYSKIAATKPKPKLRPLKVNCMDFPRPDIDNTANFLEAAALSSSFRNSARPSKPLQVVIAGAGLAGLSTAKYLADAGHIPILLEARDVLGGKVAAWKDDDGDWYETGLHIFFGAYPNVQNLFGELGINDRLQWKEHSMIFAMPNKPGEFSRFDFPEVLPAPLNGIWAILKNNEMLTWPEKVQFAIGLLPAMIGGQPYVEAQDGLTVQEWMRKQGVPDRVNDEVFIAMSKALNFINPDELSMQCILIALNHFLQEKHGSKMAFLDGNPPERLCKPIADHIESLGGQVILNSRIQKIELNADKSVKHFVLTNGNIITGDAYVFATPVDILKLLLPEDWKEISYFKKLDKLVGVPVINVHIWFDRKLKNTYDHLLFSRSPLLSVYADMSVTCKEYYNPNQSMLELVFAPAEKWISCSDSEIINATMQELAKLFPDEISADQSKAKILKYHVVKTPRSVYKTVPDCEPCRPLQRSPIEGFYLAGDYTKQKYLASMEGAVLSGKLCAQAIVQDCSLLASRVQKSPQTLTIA", "UniProt Q66PY0, 1-580": "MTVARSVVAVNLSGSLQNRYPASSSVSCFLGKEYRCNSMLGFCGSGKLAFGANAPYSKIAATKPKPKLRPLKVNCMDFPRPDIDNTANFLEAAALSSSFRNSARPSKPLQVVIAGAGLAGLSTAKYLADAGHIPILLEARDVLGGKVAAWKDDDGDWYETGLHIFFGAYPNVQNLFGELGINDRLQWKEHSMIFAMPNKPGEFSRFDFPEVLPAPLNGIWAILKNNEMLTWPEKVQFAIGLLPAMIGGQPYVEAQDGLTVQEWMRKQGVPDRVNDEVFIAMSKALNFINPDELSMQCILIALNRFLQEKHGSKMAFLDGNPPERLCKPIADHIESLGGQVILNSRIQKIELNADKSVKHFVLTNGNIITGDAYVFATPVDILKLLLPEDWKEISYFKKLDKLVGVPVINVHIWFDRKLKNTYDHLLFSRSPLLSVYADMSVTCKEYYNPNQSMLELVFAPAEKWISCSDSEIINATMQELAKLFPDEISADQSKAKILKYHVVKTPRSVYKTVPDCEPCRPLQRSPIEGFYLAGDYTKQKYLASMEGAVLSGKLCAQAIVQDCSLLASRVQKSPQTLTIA"},
  "source": "patent US20110098180A1",
  "about": "“Herbicide-Resistant Plants, And Polynucleotides And Methods For Providing Same” (United States Department of Agriculture, priority 2002, published 2011)",
  "test_in_all_cases": "Cross resistance to bleaching herbicides, in vitro PDS inhibition, non-His-tagged (Table 2)",
  "assay_type_in_all_cases": "biochemical",
  "key": {"[1]": {"target": "Hydrilla PDS Arg^304 → Threonine (Hydrilla verticillata, UniProt Q66PY0, R304T)", "conditions": "read-out: I50, Threonine at 304, construct in frame with LacZalpha-ccdB", "description": "(§1) The expression constructs in Table 2 were derived from an original clone of the susceptible PDS gene from Hydrilla and then the Arg^304 was mutated to the listed amino acid. Expression was under the control of the lac promoter but in frame with the initiation codon of the LacZalpha-ccdB gene in the pCR4-TOPO vector (Invitrogen Inc., CA, Cat. #K4575-01).\n(§2) All mutagenesis was performed, unless stated otherwise, using the TOPO-vector containing the wildtype (H4) PDS-sequence, which was extracted from an overnight culture with the Qiagen Plasmid Prep Kit as described above. The amount of the extracted plasmid was diluted to 10 ng/μl and used as template in a mutagenesis-procedure using the QuikChange Site-directed Mutagenesis Kit (Stratagene, Calif., #200518). The design of the mutagenesis-primers was conducted according to the manufacturers protocol to enable the specific change of Arg^304-codon to code for the desired amino acid. Primers (purchased from MWG-Biotech) and their introduced amino acid change are listed below with the changed codon underlined:\n(§3) The reactions were performed according to the manufacturers protocol. Reactions were set up in MicroAmp-tubes on ice with 38 μl ddH2O, 5 μl 10× reaction buffer, 2 μl plasmid (10 ng/μl), 1.25 μl forward-mutagenesis primer (100 ng/μl), 1.25 μl of reverse mutagenesis primer (100 ng/μl), 1 μl dNTP-mix and 1 μl PfuTurboDNA polymerase (2.5 U/μl). The reactions were placed in a PE 9700 thermal cycler and heated to 95° C. for 30 sec followed by 12 rounds at 95° C. for 30 sec, 55° C. for 1 min and 68° C. for 12 min. The PCR was followed by a DpnI-digestion and transformation in XL1-Blue supercompetent cells as described in the manual. 4-6 resulting colonies were grown overnight in LB-medium with kanamycin and plasmid DNA was isolated as described above. The plasmid was used as template for sequencing with M13 and internal PDS-primers as described above on a LiCOR-system. Sequences were assembled and analyzed using Seqman. Introduced mutations were identified and plasmids carrying the desired mutation(s) were transferred into competent TOP10-cells, using the transformation protocol from the TOPO TA Cloning Kit. Resulting colonies were grown overnight in Wu-broth with kanamycin, aliquoted and stored at −80° C. until further use. 1 ml of Wu-cultures was used to start 1-L LB-cultures with kanamycin as described before, to express active PDS-enzyme for testing as described.\n(§4) Phytoene desaturase activity and its inhibition by herbicides was determined using an in vitro system using components derived from the in vivo production of phytoene and phytoene desaturase proteins. All mutations described in Examples 3 and 4 were tested. […] The clones were used for the heterologous expression of Hydrilla-PDS-enzyme. In particular, bacterial cultures were grown from single colonies overnight in Wu-broth (6.27 g/L K2HPO4, 1.8 g/L KH2PO4, 0.5 g/L Na-citrate, 0.9 g/L (NH4)2SO4, 10 g/L tryptone, 5 g/L yeast extract, 10 g/L NaCl, 44 ml/L glycerol, 0.1 mM MgSO4, pH 7.2) with kanamycin. 1-mL was aliquoted in centrifuge tube and stored at −80° C. For expression, 1 L LB-medium with kanamycin was inoculated with 1-mL Wu-culture and grown for 24 h at 37° C. to stationary phase with shaking at 200 rpm. The cells were collected by centrifugation at 2000×g. All of the following steps were done at 4° C. unless otherwise noted."}, "[2]": {"target": "hydrilla PDS Arg^304 → Serine (Hydrilla verticillata, UniProt Q66PY0, R304S)", "conditions": "read-out: I50, Serine at 304, construct in frame with LacZalpha-ccdB", "description": "as §1, §2, §3, §4"}, "[3]": {"target": "hydrilla PDS Arg^304 → Cysteine (Hydrilla verticillata, UniProt Q66PY0, R304C)", "conditions": "read-out: I50, Cysteine at 304, construct in frame with LacZalpha-ccdB", "description": "as §1, §2, §3, §4"}, "[4]": {"target": "hydrilla PDS Arg^304 → Histidine (Hydrilla verticillata, UniProt Q66PY0, R304H)", "conditions": "read-out: I50, Histidine at 304, construct in frame with LacZalpha-ccdB", "description": "as §1, §2, §3, §4"}, "[5]": {"target": "hydrilla PDS position 304 Arginine (wildtype) (Hydrilla verticillata, UniProt Q66PY0)", "conditions": "read-out: I50, Arginine at 304, construct in frame with LacZalpha-ccdB", "description": "as §1, §2, §3, §4"}},
  "data": [
    {"substance": "Fluridone", "values": [
      {"measurement": "IC50", "setting": "[1]", "result": 18.1, "unit": "µM"},
      {"measurement": "IC50", "setting": "[2]", "result": 9.9, "unit": "µM"},
      {"measurement": "IC50", "setting": "[3]", "result": 5.7, "unit": "µM"},
      {"measurement": "IC50", "setting": "[4]", "result": 5, "unit": "µM"},
      {"measurement": "IC50", "setting": "[5]", "result": 1.8, "unit": "µM"}
    ]}
  ]
}
